Measurements from patent US20120244080A1 (GEORGIA STATE UNIVERSITY RESEARCH FOUNDATION, published 2012).

Target: GLP-1 receptor (GLP-1R) on rat insulinoma RINm5F cells (rat (RINm5F rat insulinoma cells)) (UniProt P32301)
Test: cell-based or functional assay

“Exendin-4 (from UniProt P26349) (peptide)” showed an intracellular cAMP level in rat insulinoma RINm5F cells (Lance cAMP 384 kit), IC50 of 1 nM.
